Data as given in PubChem BioAssay AID624352 (Sanford-Burnham Center for Chemical Genomics, 2012).
Only a part is listed here, and it is no random draw. Activity calls are given as the source filed them.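 Rule for the calls: active = inhibition of the luminescence signal of 40% or more relative to plate controls, in a single-dose primary screen at 18.75 µM; inactive = the rest.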

Experiment: blockers of HIF-2a driven luciferase – luminescence, 786-0 RCC cells, primary screen (AID 624352)
Conditions: 786-0 RCC cells HIF-2a reporter, overnight, at 18.8 µM, stronger effect = higher value
In the case of `CCN1CCC(Nc2ccc(Cl)cc2)CC1`, the inhibition is reported as inactive: 12.5%.
For `O=c1[nH]c2ccccc2n1C1CCN(C(c2ccccc2OC(F)(F)F)c2nnnn2C2CCCC2)CC1` (centres undefined), the inhibition was inactive: -14.3%.
In the case of `N#CC1(Nc2ccccc2)CCN(CCc2ccccc2)CC1`, the inhibition is reported as inactive: 17.2%.
With `O=C(NCC1(N2CCCCC2)CCCCC1)c1cccc([N+](=O)[O-])c1` the inhibition was inactive: 13.6%.
In the case of `CSc1ccc(C(=O)NCC2(N3CCOCC3)CCCCC2)cc1`, the inhibition is reported as inactive: 1.51%.
In the case of `CC(C)(C)n1nnnc1C(c1ccccc1OC(F)(F)F)N1CCC(n2c(=O)[nH]c3ccccc32)CC1` (centres undefined), the inhibition is reported as inactive: -7.86%.
For `O=C(NCC1(N2CCCCC2)CCCCC1)c1ccc(OC(F)F)cc1`, the inhibition was inactive: 5.59%.
In the case of `COc1cc(C(=O)NCC2(N3CCCCC3)CCCCC2)ccc1OC(F)F`, the inhibition is reported as inactive: 0.6%.
For `O=C(NCC1(N2CCOCC2)CCCCC1)c1cc(=O)[nH]c2ccccc12`, the inhibition was inactive: 18.2%.
With `CN1CCN(CCOC(=O)C(O)(c2ccccc2)c2ccccc2)CC1` the inhibition was inactive: 11.9%.
With `CC(C)c1ccc(C(=O)NCC2(N3CCOCC3)CCCCC2)cc1` the inhibition was inactive: -38.6%.
With `COc1ccc(NC2CCN(C(=O)OC(C)(C)C)CC2)cc1` the inhibition was inactive: -20.2%.
With `CCCCn1nnnc1C(c1cccc2ccccc12)N1CCC(n2c(=O)[nH]c3ccccc32)CC1` (centres undefined) the inhibition was inactive: 4.29%.
In the case of `O=C(NCC1(N2CCCCC2)CCCCC1)c1cccc(C(F)(F)F)c1`, the inhibition is reported as inactive: -7.65%.
For `COc1cc(OC)c(C(=O)NCC2(N(C)C)CCCCC2)cc1OC`, the inhibition was inactive: 3.88%.
For `O=C(NCC1(N2CCOCC2)CCCCC1)c1cc(F)c(F)cc1Cl`, the inhibition was inactive: -2.18%.
In the case of `CCC(c1nnnn1C(C)(C)C)N1CCC(n2c(=O)[nH]c3ccccc32)CC1` (centres undefined), the inhibition is reported as inactive: 0.908%.
With `CCCCn1nnnc1C(c1ccnc2ccccc12)N1CCC(n2c(=O)[nH]c3ccccc32)CC1` (centres undefined) the inhibition was inactive: 14.2%.
With `CCCCn1nnnc1C(c1ccccc1OC(F)(F)F)N1CCC(n2c(=O)[nH]c3ccccc32)CC1` (centres undefined) the inhibition was inactive: -9.05%.
With `CC(C)c1ccc(NC2CCN(C(=O)OC(C)(C)C)CC2)cc1` the inhibition was inactive: -253%.
With `COc1ccc(CN(CCCl)CCCl)cc1Cl` the inhibition was inactive: 18.7%.
With `CN(C)c1cccc(C(=O)NCC2(N3CCCCC3)CCCCC2)c1` the inhibition was inactive: 16.2%.
With `COc1ccc(C(c2nnnn2C2CCCC2)N2CCC(n3c(=O)[nH]c4ccccc43)CC2)cc1` (centres undefined) the inhibition was inactive: -9.18%.
In the case of `Cc1ccc(C(=O)NCC2(N(C)C)CCCCC2)o1`, the inhibition is reported as inactive: 1.76%.
For `CCCOc1ccc(C(=O)NCC2(N(C)C)CCCCC2)cc1OC`, the inhibition was inactive: 18.3%.
In the case of `CN1CCC(Nc2cccc(F)c2)CC1`, the inhibition is reported as inactive: 21.2%.
With `O=C(NCC1(N2CCCCC2)CCCCC1)c1cncc(Br)c1` the inhibition was inactive: -0.384%.
For `CSc1ccccc1C(=O)NCC1(N2CCCCC2)CCCCC1`, the inhibition was inactive: 9.73%.
For `Cc1cccc(NC2(C#N)CCN(Cc3ccccc3)CC2)c1`, the inhibition was inactive: 8.51%.
In the case of `COc1ccc(C(=O)NCC2(N3CCCCC3)CCCCC2)cc1`, the inhibition is reported as inactive: 7.42%.
For `CC(C)(C)OC(=O)N1CCC(N(C(=O)c2ccccc2)c2ccc(F)cc2)CC1`, the inhibition was inactive: 7.63%.
For `COc1ccc(C(=O)NCC2(N3CCCCC3)CCCCC2)c(OC)c1OC`, the inhibition was inactive: 4.53%.
In the case of `CCC(c1nnnn1C1CCCC1)N1CCC(n2c(=O)[nH]c3ccccc32)CC1` (centres undefined), the inhibition is reported as inactive: -19.4%.
With `O=C(NCC1(N2CCCCC2)CCCCC1)c1ccc(=O)[nH]c1` the inhibition was inactive: -0.126%.
With `O=C(NCC1(N2CCCCC2)CCCCC1)c1cccs1` the inhibition was inactive: 7.16%.
For `CCCCn1nnnc1C(CC)N1CCC(n2c(=O)[nH]c3ccccc32)CC1` (centres undefined), the inhibition was inactive: 1.69%.
With `CCCCn1nnnc1C(c1cccs1)N1CCC(n2c(=O)[nH]c3ccccc32)CC1` (centres undefined) the inhibition was inactive: 4.1%.
For `O=C(NCC1(N2CCCCC2)CCCCC1)c1ccc(Cl)s1`, the inhibition was inactive: 4.92%.
With `N#CC1(Nc2ccccc2)CCN(Cc2ccccc2)CC1` the inhibition was inactive: 15.7%.
With `O=C(OC1CN2CCC1CC2)C1c2ccccc2Oc2ccccc21` (centres undefined) the inhibition was inactive: -10.5%.
For `O=c1[nH]c2ccccc2n1C1CCN(C(c2cc3ccccc3o2)c2nnnn2C2CCCCC2)CC1` (centres undefined), the inhibition was inactive: -76.9%.
For `COc1ccc(Cl)cc1C(=O)NCC1(N2CCOCC2)CCCCC1`, the inhibition was inactive: -14.8%.
For `CCOC(=O)N1CCC(Nc2ccc(OC)cc2)CC1`, the inhibition was inactive: 14.6%.
In the case of `CCCCn1nnnc1C(c1ccc(OC)cc1)N1CCC(n2c(=O)[nH]c3ccccc32)CC1` (centres undefined), the inhibition is reported as inactive: 15.3%.
In the case of `O=C(NCC1(N2CCCCC2)CCCCC1)c1ccc(Cl)nc1`, the inhibition is reported as inactive: 6.92%.
For `O=c1[nH]c2ccccc2n1C1CCN(C(c2ccccc2OC(F)(F)F)c2nnnn2C2CCCCC2)CC1` (centres undefined), the inhibition was inactive: -23.1%.
For `Cc1cc(C)cc(N(C(=O)c2ccccc2)C2CCN(C(=O)OC(C)(C)C)CC2)c1`, the inhibition was inactive: 11.6%.
In the case of `O=C(NCC1(N2CCOCC2)CCCCC1)c1cc2ccccc2o1`, the inhibition is reported as inactive: 13.7%.
For `CCCCn1nnnc1C(c1cc2ccccc2o1)N1CCC(n2c(=O)[nH]c3ccccc32)CC1` (centres undefined), the inhibition was inactive: -51.2%.
In the case of `O=P1(N(CCCl)CCCl)SCCCS1`, the inhibition is reported as inactive: 16.6%.
With `CCCCOc1ccc(C(=O)NCC2(N3CCOCC3)CCCCC2)cc1` the inhibition was inactive: -10.8%.
With `O=C(NCC1(N2CCCCC2)CCCCC1)c1ccc(F)cc1` the inhibition was inactive: 6.12%.
In the case of `COc1ccc(NC2CCN(CCc3ccccc3)CC2)c(OC)c1`, the inhibition is reported as inactive: 1.46%.
In the case of `CCOC(=O)N1CCC(Nc2ccc(F)cc2)CC1`, the inhibition is reported as inactive: 14.5%.
